{"sequences": {"note": "The chains behind the UniProt entries cited, without tags or fusion partners. Where a name states a change or a piece, a line headed by the entry shows the natural chain unless it says otherwise.", "UniProt P0A749": "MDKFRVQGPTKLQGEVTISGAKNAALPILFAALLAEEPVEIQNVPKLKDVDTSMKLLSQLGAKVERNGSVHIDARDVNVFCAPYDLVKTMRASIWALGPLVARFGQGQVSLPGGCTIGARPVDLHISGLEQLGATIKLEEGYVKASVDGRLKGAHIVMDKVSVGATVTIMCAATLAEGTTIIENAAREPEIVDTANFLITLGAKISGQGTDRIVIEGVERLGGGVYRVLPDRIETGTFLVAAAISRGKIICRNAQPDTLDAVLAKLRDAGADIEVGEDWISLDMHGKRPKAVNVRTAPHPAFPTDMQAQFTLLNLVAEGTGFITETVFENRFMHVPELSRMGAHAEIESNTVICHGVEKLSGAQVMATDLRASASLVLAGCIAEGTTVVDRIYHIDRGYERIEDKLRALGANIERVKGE"}, "source": "patent US7344850B2", "about": "“Identification of active-site inhibitors of glycosyltransferases using a generalizable high-throughput screen” (Princeton University, priority 2003, dated 2008)", "molecular_target": "MurA (UniProt P0A749)", "assay": "Assay of MurA", "settings": "read-out: IC50 MurA", "data": [{"smiles": "CC1CCN(CN2C(=O)/C(=C\\c3ccc(C(C)(C)C)cc3)SC2=S)CC1", "note": "[Compound 1, 5-(4-tert-Butyl-benzylidene)-3-(4-methyl-piperidin-1-ylmethyl)-2-thioxo-thiazolidin-4-one]", "values": [{"measurement": "IC50", "result": "> 100", "unit": "µM"}]}, {"smiles": "O=C(O)CN1C(=O)/C(=C\\c2cc(Cl)cc(Br)c2O)SC1=S", "note": "[Compound 2]", "values": [{"measurement": "IC50", "result": "> 100", "unit": "µM"}]}, {"smiles": "O=C1/C(=C2/C(=O)N(Cc3ccccc3)c3ccc(Br)cc32)SC(=S)N1CCS(=O)(=O)O", "note": "[Compound 3]", "values": [{"measurement": "IC50", "result": "> 100", "unit": "µM"}]}, {"smiles": "O=C1NC(=O)N(c2ccc(Cl)cc2)C(=O)/C1=C/c1ccc(Br)o1", "note": "[Compound 4]", "values": [{"measurement": "IC50", "result": "> 100", "unit": "µM"}]}, {"smiles": "Cc1cc(/C=C2\\C(=O)NC(=S)N(c3cccc(Cl)c3)C2=O)c(C)n1-c1cc(C(=O)O)cc(C(=O)O)c1", "note": "[Compound 5]", "values": [{"measurement": "IC50", "result": "> 100", "unit": "µM"}]}, {"smiles": "CC(C)(C)c1ccc(OCCOc2cccc(C=C3C(=O)NC(=S)NC3=O)c2)cc1", "note": "[Compound 6]", "values": [{"measurement": "IC50", "result": "> 100", "unit": "µM"}]}, {"smiles": "O=C(O)c1ccc(N2C(=O)/C(=C/c3ccc(-c4ccc(Br)cc4)o3)C=C2c2ccccc2)cc1", "note": "[Compound 7]", "values": [{"measurement": "IC50", "result": "> 100", "unit": "µM"}]}]}
